The text below walks through data of patent US5075338A (priority 1986, dated 1991).

This test relates to rabbit pulmonary artery, tyramine-induced noradrenaline release. The settings on record: in vitro, 30 minutes equilibration.

SMILES strings stand for the structures.

`CC(Cc1ccccc1)NCCBr` (stereo not shown): the “IC50, inhibition of noradrenaline releasing effect of tyramine” value is reported as “can not be given”.
